Assay results: patent US6589950B1, “Purine derivatives inhibitors of tyrosine protein kinase SYK” (Novartis AG, priority 1999, dated 2003)

Molecular target: syk kinase (Homo sapiens, UniProt P43405)
Assay: syk kinase peptide phosphorylation scintillation proximity assay (SPA)
Settings: read-out: IC50 (concentration at which 50% inhibition of syk kinase phosphorylation occurs), biotin-EDPDYEWPSA substrate, 33P-ATP, SPA beads, room temperature 30 minutes

| SMILES | IC50 [nM] | other results |
| --- | --- | --- |
| CC(C)Nc1nc(Nc2ccc(S(=O)(=O)N(C)C)cc2)nc2[nH]cnc12 |  | IC50 (tested form: TFA salt): 5 nM |
| c1cnc2ccc(Nc3nc(Nc4ccc5cn[nH]c5c4)c4nc[nH]c4n3)cc2c1 | 4.5 |  |
| CCC(=O)N(C)c1ccc(Nc2nc(NC3CC3)c3nc[nH]c3n2)cc1 | 6 |  |
| c1nc2c(NC3CC3)nc(Nc3ccc4[nH]ncc4c3)nc2[nH]1 |  | IC50 (tested form: hydrochloride): 3 nM |

Like-named read-outs stand apart in the source and are kept apart here.
